Experimental findings from ChEMBL document CHEMBL2146398, “Novel interleukin-5 inhibitors based on hydroxyethylaminomethyl-4H-chromen-4-one scaffold” (Bioorg Med Chem, 2012) are described below.

The target in this experiment is T1, Interleukin-5 (Mus musculus) (UniProt P04401).
T1 sequence (whole entry): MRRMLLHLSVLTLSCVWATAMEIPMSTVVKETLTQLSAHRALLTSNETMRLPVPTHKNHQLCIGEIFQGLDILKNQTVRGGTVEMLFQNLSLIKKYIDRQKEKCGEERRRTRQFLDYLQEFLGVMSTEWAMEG
Description: Inhibition of IL-5 in mouse Y16 cells at 30 uM after 48 hrs by WST1 assay. In kind it is cell-based. The gist of the method:
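IL-5-dependent pro-B Y16 cells cultured 48 h with 3 units/mL mIL-5, with or without test sample. Proliferation read as cell metabolism by WST-1 reduction. […] Values are means of three independent experiments.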
(In general: Tetrazolium assays rely on reduction of a dye to a coloured formazan, in cell work by metabolically active cells.)

`CCCC1O[C@@H]2C[C@H]3[C@@H]4CCC5=CC(=O)C=C[C@]5(C)[C@H]4[C@@H](O)C[C@]3(C)[C@]2(C(=O)CO)O1` (stereo partly specified): the inhibition (in general, the change of the read-out against control, counted positive when it falls) is 55.3%.
